Assay results: patent US20260137691A1 (priority 2024, published 2026)

Chains of the proteins cited; added tags and fusions are not shown.
UniProt P21452, whole entry: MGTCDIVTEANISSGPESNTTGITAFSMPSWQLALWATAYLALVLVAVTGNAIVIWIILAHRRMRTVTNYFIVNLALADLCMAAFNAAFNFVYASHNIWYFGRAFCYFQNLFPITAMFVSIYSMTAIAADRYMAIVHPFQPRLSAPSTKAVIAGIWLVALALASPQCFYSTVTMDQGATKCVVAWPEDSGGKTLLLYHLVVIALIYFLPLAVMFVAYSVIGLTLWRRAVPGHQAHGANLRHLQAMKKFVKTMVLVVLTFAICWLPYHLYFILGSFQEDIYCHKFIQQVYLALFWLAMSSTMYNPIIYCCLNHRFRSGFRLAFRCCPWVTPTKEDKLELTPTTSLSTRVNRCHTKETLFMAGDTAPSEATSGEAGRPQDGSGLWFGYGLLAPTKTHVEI

Biological target: T1, NK2 (h) (Homo sapiens, UniProt P21452)
T1 construct: Eurofins (contract assay)
Experiment: NK2 (h) (agonist radioligand)
Format: binding

Work on `CCCC[C@H](NC(=O)[C@H](CC(C)C)NC(=O)CNC(=O)[C@@H](NC(=O)[C@H](Cc1ccccc1)NC(=O)[C@H](CO)NC(=O)[C@@H](N)CC(=O)O)C(C)C)C(N)=O` [[Nleu10]-NKA (4-10)] yielded an IC50 of 3.5 nM.
